Where “and” joins values, the source holds several entries; their conditions need not be identical. Identical values can stand only once.
How the values were obtained:
[1] = target: Chloride Intracellular Channel 1 (CLIC1), His-tag cleaved with TEV protease (UniProt O00299); assay: mass photometry
[2] = target: Chloride Intracellular Channel 1 (CLIC1), His-tag cleaved with TEV protease (UniProt O00299); assay: SEC

stoichiometry N [1]: 4 | stoichiometry N [2]: 2 and 4
Substance: Chloride Intracellular Channel 1 (CLIC1), His-tag cleaved with TEV protease (from UniProt O00299 1-241) (natural protein)

Source: article doi:10.1101/2025.01.19.633805
